According to PubChem BioAssay (NCI):
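Tested at 5 concentrations; 48 h exposure; 96-well plates; endpoints linearly interpolated, else capped at highest concentration. At the GI50, growth is halved. TGI marks complete inhibition of growth.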

Experiments:
Assay in all cases: NCI-60 cell line screen, 48 h
HOP-62 NSCLC = test system: HOP-62 NSCLC
CCRF-CEM leukemia = test system: CCRF-CEM leukemia
SNB-75 CNS = test system: SNB-75 CNS
HOP-92 NSCLC = test system: HOP-92 NSCLC
MDA-MB-435 = test system: MDA-MB-435
DU-145 prostate = test system: DU-145 prostate
KM12 colon = test system: KM12 colon
HS 578T breast = test system: HS 578T breast
NCI-H522 lung = test system: NCI-H522 lung
SF-295 CNS = test system: SF-295 CNS
HCC-2998 colon = test system: HCC-2998 colon
SW-620 colon = test system: SW-620 colon
SF-268 CNS = test system: SF-268 CNS
SK-MEL-2 melanoma = test system: SK-MEL-2 melanoma
U251 CNS = test system: U251 CNS
NCI-H322M lung = test system: NCI-H322M lung
SR leukemia = test system: SR leukemia
NCI-H460 lung = test system: NCI-H460 lung
OVCAR-4 ovarian = test system: OVCAR-4 ovarian
HCT-116 colon = test system: HCT-116 colon
NCI/ADR-RES ovarian = test system: NCI/ADR-RES ovarian
A549 NSCLC = test system: A549 NSCLC
TK-10 renal = test system: TK-10 renal
UACC-257 melanoma = test system: UACC-257 melanoma
EKVX NSCLC = test system: EKVX NSCLC
RPMI-8226 leukemia = test system: RPMI-8226 leukemia
SNB-19 CNS = test system: SNB-19 CNS
SF-539 CNS = test system: SF-539 CNS
BT-549 breast = test system: BT-549 breast
IGROV1 ovarian = test system: IGROV1 ovarian
A498 renal = test system: A498 renal
NCI-H226 lung = test system: NCI-H226 lung
ACHN renal = test system: ACHN renal
PC-3 prostate = test system: PC-3 prostate
OVCAR-3 ovarian = test system: OVCAR-3 ovarian
MDA-MB-231 breast = test system: MDA-MB-231 breast
LOX IMVI melanoma = test system: LOX IMVI melanoma
SN12C renal = test system: SN12C renal
MCF7 breast = test system: MCF7 breast
UO-31 renal = test system: UO-31 renal
M14 melanoma = test system: M14 melanoma
SK-MEL-28 melanoma = test system: SK-MEL-28 melanoma
UACC-62 melanoma = test system: UACC-62 melanoma
T-47D breast = test system: T-47D breast
SK-OV-3 ovarian = test system: SK-OV-3 ovarian
HT29 colon = test system: HT29 colon
COLO 205 colon = test system: COLO 205 colon
MDA-N = test system: MDA-N
HL-60(TB) leukemia = test system: HL-60(TB) leukemia
NCI-H23 lung = test system: NCI-H23 lung
HCT-15 colon = test system: HCT-15 colon
K-562 leukemia = test system: K-562 leukemia
SK-MEL-5 melanoma = test system: SK-MEL-5 melanoma
OVCAR-5 ovarian = test system: OVCAR-5 ovarian
MOLT-4 leukemia = test system: MOLT-4 leukemia
MALME-3M melanoma = test system: MALME-3M melanoma
OVCAR-8 ovarian = test system: OVCAR-8 ovarian
CAKI-1 renal = test system: CAKI-1 renal
786-0 renal = test system: 786-0 renal
RXF 393 renal = test system: RXF 393 renal

## NC(=O)CNc1ccc([As](=O)(O)O)cc1
HOP-62 NSCLC
  GI50: > 100 µM
  TGI: > 100 µM
CCRF-CEM leukemia
  GI50: > 100 µM
  TGI: > 100 µM
SNB-75 CNS
  GI50: > 100 µM
  TGI: > 100 µM
HOP-92 NSCLC
  GI50: > 100 µM
  TGI: > 100 µM
MDA-MB-435
  GI50: > 100 µM
  TGI: > 100 µM
DU-145 prostate
  GI50: > 100 µM
  TGI: > 100 µM
KM12 colon
  GI50: > 100 µM
  TGI: > 100 µM
HS 578T breast
  GI50: > 100 µM
  TGI: > 100 µM
NCI-H522 lung
  GI50: > 100 µM
  TGI: > 100 µM
SF-295 CNS
  GI50: > 100 µM
  TGI: > 100 µM
HCC-2998 colon
  GI50: > 100 µM
  TGI: > 100 µM
SW-620 colon
  GI50: > 100 µM
  TGI: > 100 µM
SF-268 CNS
  GI50: > 100 µM
  TGI: > 100 µM
SK-MEL-2 melanoma
  GI50: > 100 µM
  TGI: > 100 µM
U251 CNS
  GI50: > 100 µM
  TGI: > 100 µM
NCI-H322M lung
  GI50: > 100 µM
  TGI: > 100 µM
SR leukemia
  GI50: > 100 µM
  TGI: > 100 µM
NCI-H460 lung
  GI50: > 100 µM
  TGI: > 100 µM
OVCAR-4 ovarian
  GI50: > 100 µM
  TGI: > 100 µM
HCT-116 colon
  GI50: > 100 µM
  TGI: > 100 µM
NCI/ADR-RES ovarian
  GI50: > 100 µM
  TGI: > 100 µM
A549 NSCLC
  GI50: > 100 µM
  TGI: > 100 µM
TK-10 renal
  GI50: > 100 µM
  TGI: > 100 µM
UACC-257 melanoma
  GI50: > 100 µM
  TGI: > 100 µM
EKVX NSCLC
  GI50: > 100 µM
  TGI: > 100 µM
RPMI-8226 leukemia
  GI50: > 100 µM
  TGI: > 100 µM
SNB-19 CNS
  GI50: > 100 µM
  TGI: > 100 µM
SF-539 CNS
  GI50: > 100 µM
  TGI: > 100 µM
BT-549 breast
  GI50: > 100 µM
  TGI: > 100 µM
IGROV1 ovarian
  GI50: > 100 µM
  TGI: > 100 µM
A498 renal
  GI50: > 100 µM
  TGI: > 100 µM
NCI-H226 lung
  GI50: > 100 µM
  TGI: > 100 µM
ACHN renal
  GI50: > 100 µM
  TGI: > 100 µM
PC-3 prostate
  GI50: > 100 µM
  TGI: > 100 µM
OVCAR-3 ovarian
  GI50: > 100 µM
  TGI: > 100 µM
MDA-MB-231 breast
  GI50: > 100 µM
  TGI: > 100 µM
LOX IMVI melanoma
  GI50: > 100 µM
  TGI: > 100 µM
SN12C renal
  GI50: > 100 µM
  TGI: > 100 µM
MCF7 breast
  GI50: > 100 µM
  TGI: > 100 µM
UO-31 renal
  GI50: > 100 µM
  TGI: > 100 µM
M14 melanoma
  GI50: > 100 µM
  TGI: > 100 µM
SK-MEL-28 melanoma
  GI50: > 100 µM
  TGI: > 100 µM
UACC-62 melanoma
  GI50: > 100 µM
  TGI: > 100 µM
T-47D breast
  GI50: > 100 µM
  TGI: > 100 µM
SK-OV-3 ovarian
  GI50: > 100 µM
  TGI: > 100 µM
HT29 colon
  GI50: > 100 µM
  TGI: > 100 µM
COLO 205 colon
  GI50: > 100 µM
  TGI: > 100 µM
MDA-N
  GI50: > 100 µM
  TGI: > 100 µM
HL-60(TB) leukemia
  GI50: > 100 µM
  TGI: > 100 µM
NCI-H23 lung
  GI50: > 100 µM
  TGI: > 100 µM
HCT-15 colon
  GI50: > 100 µM
  TGI: > 100 µM
K-562 leukemia
  GI50: > 100 µM
  TGI: > 100 µM
SK-MEL-5 melanoma
  GI50: > 100 µM
  TGI: > 100 µM
OVCAR-5 ovarian
  GI50: > 100 µM
  TGI: > 100 µM
MOLT-4 leukemia
  GI50: 8.11 µM
  TGI: > 100 µM
MALME-3M melanoma
  GI50: > 100 µM
  TGI: > 100 µM
OVCAR-8 ovarian
  GI50: > 100 µM
  TGI: > 100 µM
CAKI-1 renal
  GI50: > 100 µM
  TGI: > 100 µM
786-0 renal
  GI50: > 100 µM
  TGI: > 100 µM
RXF 393 renal
  GI50: > 100 µM
  TGI: > 100 µM
